{"sequences": {"note": "The chains behind the UniProt entries cited, without tags or fusion partners. Residues count along the entry.", "UniProt P25101, 21-427": "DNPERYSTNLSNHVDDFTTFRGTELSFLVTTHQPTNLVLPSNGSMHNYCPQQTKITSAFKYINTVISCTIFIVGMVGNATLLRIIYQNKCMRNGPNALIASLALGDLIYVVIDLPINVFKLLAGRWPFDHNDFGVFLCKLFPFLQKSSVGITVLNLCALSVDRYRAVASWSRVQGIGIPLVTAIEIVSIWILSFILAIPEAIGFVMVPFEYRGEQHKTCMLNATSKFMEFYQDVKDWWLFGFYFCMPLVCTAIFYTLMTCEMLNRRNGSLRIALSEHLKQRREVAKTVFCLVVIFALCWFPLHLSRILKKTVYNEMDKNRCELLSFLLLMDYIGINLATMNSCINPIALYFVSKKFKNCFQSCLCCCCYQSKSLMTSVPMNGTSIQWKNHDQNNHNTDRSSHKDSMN"}, "source": "patent US20240058331A1", "about": "“COMBINATION THERAPIES FOR TREATMENT OF CIRRHOSIS WITH PORTAL HYPERTENSION” (priority 2022, published 2024)", "origin": "cited, not measured here", "biological_target": "endothelin (ETA) receptor (Homo sapiens, UniProt P25101)", "settings": "read-out: ETA IC50", "data": [{"smiles": "COc1nc(C)cnc1NS(=O)(=O)c1cccnc1-c1ccc(-c2nnco2)cc1", "note": "[Zibotentan]", "values": [{"measurement": "IC50", "result": 13, "unit": "nM"}]}]}
